Results: patent publication US8329686B2, “Isatin analogues and uses therefor” (Washington University, priority 2006, dated 2012)

Key:
caspase 6 = biological target: T1, caspase 6 (Homo sapiens, UniProt P55212); assay: Enzyme inhibition assay, caspase 6 (fluorogenic Ac-VEID-AMC); assay type: biochemical
T1 construct: purchased Sigma-Aldrich (St. Louis, Mo.)
T1 sequence (P55212 24-179 limits assumed): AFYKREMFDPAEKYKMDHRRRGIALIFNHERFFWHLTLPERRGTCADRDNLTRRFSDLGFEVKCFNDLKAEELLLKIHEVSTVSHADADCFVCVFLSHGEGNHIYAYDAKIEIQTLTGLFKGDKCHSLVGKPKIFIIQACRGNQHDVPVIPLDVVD
T1 sequence (P55212 194-293 limits assumed): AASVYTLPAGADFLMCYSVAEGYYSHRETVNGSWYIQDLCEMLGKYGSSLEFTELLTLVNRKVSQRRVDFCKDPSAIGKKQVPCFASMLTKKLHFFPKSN

caspase-3 = biological target: T2, caspase-3 (Homo sapiens, UniProt P42574); assay: Enzyme inhibition assay, caspase 3 (fluorogenic Ac-DEVD-AMC); assay type: biochemical
T2 construct: purchased Sigma-Aldrich (St. Louis, Mo.)
T2 sequence (P42574 29-175 limits assumed): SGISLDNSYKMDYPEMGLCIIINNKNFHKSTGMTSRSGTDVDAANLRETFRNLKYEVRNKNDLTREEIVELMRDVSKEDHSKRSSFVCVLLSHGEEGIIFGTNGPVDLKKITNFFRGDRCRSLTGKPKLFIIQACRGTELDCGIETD
T2 sequence (P42574 176-277 limits assumed): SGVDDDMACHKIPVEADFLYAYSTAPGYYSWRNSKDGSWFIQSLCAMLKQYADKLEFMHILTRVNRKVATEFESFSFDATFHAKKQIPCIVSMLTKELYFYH

Row | IC50 (caspase 6; Table 1) [nM] | IC50 (caspase 6; Table 2) [nM] | SMILES | IC50 (caspase-3) [nM] | IC50 (caspase-3; Table 2, read-out: IC50 (nM) Caspase 3) [nM]
1 | 60.5 ± 7.6 | 9.6 ± 2.1 | CC[C@H](C)[C@H](NC(=O)[C@H](CCC(=O)O)NC(=O)[C@@H](NC(C)=O)C(C)C)C(=O)N[C@H](C=O)CC(=O)O [Ac-VEID-CHO, reference compound] |  | 
2 |  |  | CC(=O)N[C@@H](CC(=O)O)C(=O)N[C@@H](CCC(=O)O)C(=O)N[C@H](C(=O)N[C@H](C=O)CC(=O)O)C(C)C [Ac-DEVD-CHO, reference compound] | 4.8 ± 2 | 3.8 ± 0.8

Like-named read-outs stand apart in the source and are kept apart here.
